## Apparent affinities of Ab-14 variants for a coronavirus HR2 peptide

The target is the same throughout: PDVDLGDISGINAS, from the HR2 region of SARS-CoV-2 spike.

Ab-14 is the parent antibody, in scFv form: VH, then a (GGGGS)3 linker, then VL. The light chain is unchanged in all variants.
VH: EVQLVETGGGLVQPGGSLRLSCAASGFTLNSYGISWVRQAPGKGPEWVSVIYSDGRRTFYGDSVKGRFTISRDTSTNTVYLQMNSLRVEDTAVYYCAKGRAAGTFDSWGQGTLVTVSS
VL: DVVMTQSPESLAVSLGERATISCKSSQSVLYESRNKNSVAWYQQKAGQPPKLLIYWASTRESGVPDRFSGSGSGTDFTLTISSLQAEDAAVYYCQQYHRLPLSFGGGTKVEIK

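This is the validation round: designs drawn from the data on random variants, tested in the same kind of assay. Their group label is 14H_En_Gibbs (En: ensemble of fine-tuned language models; Gibbs: Gibbs sampling). In AlphaSeq, yeast of one mating type display the scFv and yeast of the other type display the target. After mating in shaken culture at 30 °C for 16 h, diploids were selected and their barcode pairs sequenced. The ratio of observed to expected reads was calibrated, replicate by replicate, on BCL2-family standards whose Kd was known from biolayer interferometry. Each pool was mated in six replicate cultures.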

Each variant is given by its three heavy chain CDRs, as the data file delimits them; those of the parent are GFTLNSYGIS, VIYSDGRRTFYGDSVK, GRAAGTFDS. The read-out is the apparent dissociation constant on a log10 scale (nM): the lower, the stronger. Averages over replicates are reported, and they cover detected replicates only. A pair that was not seen in that replicate is written "ND"; this usually means weak binding, but a binder can also be missed. As a blank, each scFv also met three strains without target: over all heavy chain designs, 1% of these pairings were detected, typically at 2.08 and seldom below 0.84. For each scFv, signals with the empty controls are counted beside the result, with their mean in brackets. The parent sequence was in this pool as ten entries: three were never detected, three once, and four in most replicates, with averages from 0.34 to 2.37. The authors' rule: three or more of the six replicates give a measured affinity, fewer mean a poor binder. Values of this round are not directly comparable with the first-round values of the same sequences.

| CDR-H1 | CDR-H2 | CDR-H3 | log10 Kd (nM) by replicate | log10 Kd (nM), mean | control signals |
|---|---|---|---|---|---|
| GNTLNEYGIS | VIYADGIRKQYSDNVK | GMNGDTFTQ | ND / ND / ND / ND / ND / ND | ND | 0/18 |
| GFDLMEYGIS | VIYADGMRQYYANKFK | GEISASGLI | ND / ND / ND / ND / ND / ND | ND | 0/18 |
| GFDLSEYGIS | VIYADGRRASYTDAVK | GEVEGMLMV | ND / ND / ND / ND / ND / ND | ND | 0/18 |
| GDVLKEYGIS | VIYADGMRTSYVQDVK | GQKSGIFIV | ND / ND / ND / ND / ND / ND | ND | 0/18 |
| GFNLDEMGIS | VIYADGKRQVYADSFK | GHFGGNKLN | ND / ND / ND / ND / ND / ND | ND | 0/18 |
| GNDLEEYGIS | VIYADGMRTAAVDSVK | GDQSGTVVY | ND / ND / ND / ND / ND / ND | ND | 0/18 |
| GFSIDEYGIS | VIYADGTRTAVATSVK | GGLVAYFDK | ND / ND / ND / ND / ND / ND | ND | 0/18 |
| GDGLEDYGIS | VIYADGMRTYYAPNVK | GEVNGVMDI | ND / ND / ND / ND / ND / ND | ND | 0/18 |
| GFNLEEVGIS | VIYADGLRSAYVDAVK | GGVTDVDFV | ND / ND / ND / ND / ND / ND | ND | 0/18 |
| GFQLEEMGIS | VIYADGVRTAYSSKVK | GGNGDKFDV | ND / ND / ND / 2.12 / ND / ND | 2.12 | 1/18 (1.83) |
| GFDVDEQGIS | VIYADGRRSQYANSVK | GANGGMFFI | ND / ND / ND / ND / ND / ND | ND | 0/18 |
| KFDLEAYGIS | VIYADGVRAAYVDKVK | GQTGGMFDQ | ND / ND / ND / ND / ND / ND | ND | 0/18 |
| GFELQEYGIS | VIYADGMRAAYSDNVK | GDNRGIFHM | ND / ND / ND / ND / ND / ND | ND | 0/18 |
| GFSLDEYGIS | VIYADGVRTQYDDSFK | GTGDFDIEG | ND / ND / ND / ND / ND / ND | ND | 0/18 |
| GFQLDEYGIS | VIYADGVRSSYVDSVK | GEITSAFSE | ND / ND / ND / ND / ND / ND | ND | 1/18 (2.22) |
| GQQLDEYGIS | VIYADGVRKSYVDSVK | GEITGTFSQ | ND / 3.70 / ND / ND / ND / ND | 3.70 | 0/18 |
| GFSLDEFGIS | VIYADGMRTAYSQDVK | GQHVEFTVG | ND / ND / ND / ND / ND / ND | ND | 0/18 |
| GVNLDEYGIS | VIYADGVRQHYTDSVK | GTLGDFGVV | ND / ND / ND / 2.45 / 1.82 / ND | 2.14 | 0/18 |
| GFSFDEYGIS | VIYADGKRQFYADTVK | GNKDMTFDI | ND / ND / ND / ND / ND / ND | ND | 0/18 |
| GFDLDEQGIS | VIYADGQRTAYADQVK | GMNGVIART | ND / ND / ND / ND / ND / ND | ND | 1/18 (2.18) |
| GFNLDEYGIS | VIYADGQRKAYAQHVK | GGGGTDRGI | ND / ND / ND / ND / ND / ND | ND | 0/18 |
| GFNLDEEGIS | VIYADGIRTAYQDTVK | GQNVANFNV | ND / ND / ND / ND / ND / ND | ND | 2/18 (2.11) |
| GFNFDEYGIS | VIYADGKRKAYSDSVK | GLSAGTMEV | ND / ND / ND / ND / ND / ND | ND | 0/18 |
| GESLDSYGIS | VIYADGMRTSYTNSVK | GVWAGTFDG | ND / ND / ND / ND / ND / ND | ND | 0/18 |
| GFDLEDYGIS | VIYADGVRTAYSQNSK | GENGVALYI | ND / ND / ND / ND / ND / ND | ND | 0/18 |
| GFNIDEYGIS | VIYADGMRTAYSNAVK | GNVNGGTIS | ND / ND / ND / ND / ND / ND | ND | 0/18 |
| GNDLNEYGIS | VIYADGLRVMYANNVK | GQLDVVVLV | ND / ND / ND / ND / ND / ND | ND | 0/18 |
| GFNLDEQGIS | VIYADGVRCSYAQSVK | GKSSGVIDV | ND / ND / ND / ND / ND / ND | ND | 0/18 |
| GFDIEEYGVS | VIYADGQRTMYTPNVK | GNITGLVDI | ND / ND / ND / ND / ND / ND | ND | 1/18 (1.81) |
| GWNLDEYGIS | VIYADGQRTFYAEAVK | GSNGSGITV | ND / ND / ND / ND / ND / ND | ND | 0/18 |
| GFDLEEYGIS | VIYADGKRVAYQDAVK | GKTGGMFMV | ND / ND / ND / ND / ND / ND | ND | 0/18 |
| GFDLNEYGIS | VIYADGIREHYKDSVK | GVVFGDVLF | ND / ND / ND / ND / ND / ND | ND | 0/18 |
| GFNLNDYGIS | VIYADGHRRSYVDNVK | GHLAGTFFM | ND / 3.28 / ND / ND / ND / ND | 3.28 | 0/18 |
| GFNLNEYGIS | VIYADGMRNFYADSVK | GLHKGFFDI | ND / ND / ND / ND / ND / ND | ND | 0/18 |
| GQDLNEYGIS | VIYADGLRQAYSENVK | GNISQFDDV | ND / ND / ND / ND / ND / ND | ND | 0/18 |
| GMSLDEYGIS | VIYADGMRTFYANTVK | GEDGVFYDQ | ND / ND / ND / ND / ND / ND | ND | 0/18 |
| GFNISEYGIS | VIYADGMRSNYADSVK | GHKGNFFID | ND / ND / ND / ND / ND / ND | ND | 0/18 |
| GMNLDEYGIS | VIYADGLRTEYANTVK | GEMAGFFMD | ND / ND / ND / ND / ND / ND | ND | 0/18 |
| GNDIEEYGIS | VIYADGQRVNAAKNFK | GKQAGTFNL | ND / ND / ND / ND / ND / ND | ND | 0/18 |
| GESLEEYGIS | VIYADGIREQYVDSVK | GEQGGFFVV | ND / ND / ND / ND / ND / ND | ND | 0/18 |
| GFDLQEYGIS | VIYADGYRTAYKQKVK | GQIAGGQFD | ND / ND / ND / ND / ND / ND | ND | 1/18 (1.70) |
| GFDIDEYGIS | VIYADGFREAYAESVK | GLIQTGITV | ND / ND / ND / ND / ND / ND | ND | 0/18 |
| GEDLSEYGIS | VIYADGERRSYANSVK | GNVSGNFSQ | ND / ND / ND / ND / ND / ND | ND | 0/18 |

The opening 7 entries, copied out:

CDR-H1,CDR-H2,CDR-H3,log10 Kd (nM) by replicate,"log10 Kd (nM), mean",control signals
GNTLNEYGIS,VIYADGIRKQYSDNVK,GMNGDTFTQ,ND / ND / ND / ND / ND / ND,ND,0/18
GFDLMEYGIS,VIYADGMRQYYANKFK,GEISASGLI,ND / ND / ND / ND / ND / ND,ND,0/18
GFDLSEYGIS,VIYADGRRASYTDAVK,GEVEGMLMV,ND / ND / ND / ND / ND / ND,ND,0/18
GDVLKEYGIS,VIYADGMRTSYVQDVK,GQKSGIFIV,ND / ND / ND / ND / ND / ND,ND,0/18
GFNLDEMGIS,VIYADGKRQVYADSFK,GHFGGNKLN,ND / ND / ND / ND / ND / ND,ND,0/18
GNDLEEYGIS,VIYADGMRTAAVDSVK,GDQSGTVVY,ND / ND / ND / ND / ND / ND,ND,0/18
GFSIDEYGIS,VIYADGTRTAVATSVK,GGLVAYFDK,ND / ND / ND / ND / ND / ND,ND,0/18

Values reported by Li et al. 2023, doi:10.1038/s41467-023-39022-2 (FLAb copy).